The target in the experiment is GLP-1 receptor on RIN 1046-38 clonal rat beta-cells (rat) (UniProt P32301). Put plainly: cell-based or functional assay.

These results are taken from US20080299088A1 (US Dept. of Health and Human Services, published 2008).

As to “Exendin-4 (from UniProt P26349) (peptide)”, the NICD nuclear localization in RIN cells in the presence of glucose is under 7.5 fold and the transcriptional activation of the UAS promoter (Notch deltaE-GVP / UAS-luciferase gamma-secretase assay in RIN cells) was over 20 fold.
